Data from ChEMBL document CHEMBL3627623, “Catecholic amides as potential selective phosphodiesterase 4D inhibitors: Design, synthesis, pharmacological evaluation and structure-activity relationships” (Bioorg Med Chem, 2015).

Chains of the proteins cited; added tags and fusions are not shown. Lines headed by an entry give the natural chain unless they say otherwise; changes in a name come on top.
UniProt Q9HCR9: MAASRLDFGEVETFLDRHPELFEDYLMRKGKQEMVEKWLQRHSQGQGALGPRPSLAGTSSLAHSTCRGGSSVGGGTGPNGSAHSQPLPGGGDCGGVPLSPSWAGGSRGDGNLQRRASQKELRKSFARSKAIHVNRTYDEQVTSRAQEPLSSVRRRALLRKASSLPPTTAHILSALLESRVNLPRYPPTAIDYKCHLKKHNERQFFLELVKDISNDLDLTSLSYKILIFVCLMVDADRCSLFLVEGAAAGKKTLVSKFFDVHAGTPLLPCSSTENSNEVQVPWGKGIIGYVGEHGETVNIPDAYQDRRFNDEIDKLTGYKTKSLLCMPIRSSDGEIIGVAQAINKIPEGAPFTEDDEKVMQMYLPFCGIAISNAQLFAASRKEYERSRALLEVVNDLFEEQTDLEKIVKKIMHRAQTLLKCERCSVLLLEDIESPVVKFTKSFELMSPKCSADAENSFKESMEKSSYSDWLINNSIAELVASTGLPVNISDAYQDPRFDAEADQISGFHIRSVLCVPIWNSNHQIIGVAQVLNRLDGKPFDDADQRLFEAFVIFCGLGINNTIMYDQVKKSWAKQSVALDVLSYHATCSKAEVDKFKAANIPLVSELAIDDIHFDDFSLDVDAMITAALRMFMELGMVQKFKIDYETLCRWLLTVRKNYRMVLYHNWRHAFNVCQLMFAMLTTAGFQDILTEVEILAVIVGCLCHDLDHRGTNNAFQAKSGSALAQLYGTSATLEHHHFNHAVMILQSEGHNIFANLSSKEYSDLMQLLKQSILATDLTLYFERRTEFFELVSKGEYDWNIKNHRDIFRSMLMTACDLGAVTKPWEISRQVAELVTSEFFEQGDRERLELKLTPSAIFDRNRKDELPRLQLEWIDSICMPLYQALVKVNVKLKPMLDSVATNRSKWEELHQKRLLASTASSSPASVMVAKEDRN
UniProt Q13946: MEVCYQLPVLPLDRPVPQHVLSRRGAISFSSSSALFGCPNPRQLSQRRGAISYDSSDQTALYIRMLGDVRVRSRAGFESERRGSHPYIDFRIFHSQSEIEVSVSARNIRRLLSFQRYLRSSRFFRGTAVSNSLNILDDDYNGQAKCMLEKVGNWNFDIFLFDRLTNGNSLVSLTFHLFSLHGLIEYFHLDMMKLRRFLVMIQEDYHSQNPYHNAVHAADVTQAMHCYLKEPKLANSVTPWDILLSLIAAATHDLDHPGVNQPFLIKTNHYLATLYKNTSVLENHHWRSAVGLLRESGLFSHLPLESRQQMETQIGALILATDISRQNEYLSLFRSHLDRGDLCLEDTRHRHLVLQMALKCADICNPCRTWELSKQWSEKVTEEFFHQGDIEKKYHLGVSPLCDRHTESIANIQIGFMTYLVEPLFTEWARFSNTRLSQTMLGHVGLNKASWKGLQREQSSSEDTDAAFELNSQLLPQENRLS
UniProt Q13370: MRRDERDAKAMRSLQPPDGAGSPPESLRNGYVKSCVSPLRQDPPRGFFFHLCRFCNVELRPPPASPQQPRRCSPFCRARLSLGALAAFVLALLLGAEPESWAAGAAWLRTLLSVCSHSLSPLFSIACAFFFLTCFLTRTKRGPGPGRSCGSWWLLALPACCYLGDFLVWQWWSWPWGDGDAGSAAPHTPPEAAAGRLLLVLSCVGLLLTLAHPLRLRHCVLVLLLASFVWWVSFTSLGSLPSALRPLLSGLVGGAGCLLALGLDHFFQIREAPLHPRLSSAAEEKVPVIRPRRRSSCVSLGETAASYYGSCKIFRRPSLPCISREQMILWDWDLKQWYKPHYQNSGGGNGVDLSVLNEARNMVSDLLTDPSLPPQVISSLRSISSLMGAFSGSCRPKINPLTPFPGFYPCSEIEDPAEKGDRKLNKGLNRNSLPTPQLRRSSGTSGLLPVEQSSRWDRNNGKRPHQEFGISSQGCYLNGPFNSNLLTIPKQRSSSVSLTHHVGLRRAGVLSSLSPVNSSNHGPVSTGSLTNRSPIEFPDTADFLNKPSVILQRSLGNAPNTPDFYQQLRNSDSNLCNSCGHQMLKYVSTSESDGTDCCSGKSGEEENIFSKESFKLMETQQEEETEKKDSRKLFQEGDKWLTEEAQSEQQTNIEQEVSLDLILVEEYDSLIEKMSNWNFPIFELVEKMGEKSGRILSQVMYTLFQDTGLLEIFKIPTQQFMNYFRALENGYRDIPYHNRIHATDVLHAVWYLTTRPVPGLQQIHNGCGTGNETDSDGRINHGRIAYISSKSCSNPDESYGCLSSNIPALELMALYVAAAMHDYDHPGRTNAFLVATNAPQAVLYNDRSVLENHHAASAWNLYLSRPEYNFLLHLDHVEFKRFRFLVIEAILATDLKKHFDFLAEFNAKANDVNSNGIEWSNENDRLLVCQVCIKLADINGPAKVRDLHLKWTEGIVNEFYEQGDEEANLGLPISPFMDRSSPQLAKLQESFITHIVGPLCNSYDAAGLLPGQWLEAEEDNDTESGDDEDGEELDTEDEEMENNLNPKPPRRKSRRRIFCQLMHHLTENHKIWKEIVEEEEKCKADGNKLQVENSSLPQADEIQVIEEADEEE

Tests used:
[1] = biological target: Dual 3',5'-cyclic-AMP and -GMP phosphodiesterase 11A (Homo sapiens, UniProt Q9HCR9); experiment: Inhibition of human PDE11A using AM-Cyclic-3',5'-AMP after 60 mins by fluorescence polarization assay
[2] = biological target: High affinity 3',5'-cyclic-AMP phosphodiesterase 7A (Homo sapiens, UniProt Q13946); experiment: Inhibition of human PDE7A using AM-Cyclic-3',5'-AMP after 60 mins by fluorescence polarization assay
[3] = biological target: cGMP-inhibited 3',5'-cyclic phosphodiesterase 3B (Homo sapiens, UniProt Q13370); experiment: Inhibition of human PDE3B using AM-Cyclic-3',5'-AMP after 60 mins by fluorescence polarization assay

Measured: IC50

COc1ccc(CNC(=O)c2ccc(OC(F)F)c(OC3CCCC3)c2)cc1
> 100 µM: [1] | [2] | [3]
